Values quoted from earlier work, collected in patent US20220394981A1, “MICRONUTRIENT FORMULATIONS THAT CONTROL PLANT PATHOGENS” (priority 2021, published 2022).

Columns and labels:
[1] = cited from earlier work
[2] = cited from earlier work; remark: listed apart in the source

ethylenediamine-N,N′-bis(2-hydroxyphenyl acetic acid) [EDDHA]
LogK Fe3+ (stability constant) [1]: 35.0
LogK Fe2+ (stability constant) [2]: 14.3
